{"source": "ChEMBL document CHEMBL1759965", "about": "“Synthesis and pharmacological evaluation of bivalent antagonists of the nociceptin opioid receptor” (Eur J Med Chem, 2011)", "target": "Nociceptin receptor (Homo sapiens, UniProt P41146)", "settings": "hek293"}
{"smiles": "CC(C)[C@H]1CC[C@@H](N2CCC3(CC2)C(=O)N(CCCCCCCCCN(C)C)CN3c2ccccc2)CC1", "values": [{"measurement": "IC50", "value": 5.5, "unit": "nM"}]}
